{"sequences": {"note": "By UniProt entry, the sequences of proteins in these tests, tags left out.", "UniProt P06730, whole entry, species assumed": "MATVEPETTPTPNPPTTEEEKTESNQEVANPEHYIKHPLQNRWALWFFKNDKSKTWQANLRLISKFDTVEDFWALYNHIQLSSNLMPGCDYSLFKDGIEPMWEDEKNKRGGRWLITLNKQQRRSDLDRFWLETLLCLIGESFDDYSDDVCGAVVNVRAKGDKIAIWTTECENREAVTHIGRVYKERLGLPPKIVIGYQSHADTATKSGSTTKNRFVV"}, "source": "patent US10472677B2", "about": "“Translational dysfunction based therapeutics” (Translational Therapeutics, Inc., priority 2005, dated 2019)", "origin": "cited, not measured here", "target": "eIF4E (Homo sapiens, UniProt P06730)", "details": "read-out: Kd of eIF4E for cap; cited from earlier work", "data": [{"smiles": "Cn1c[n+]([C@@H]2O[C@H](COP(=O)(O)OP(=O)([O-])OP(=O)(O)OC[C@H]3O[C@@H](n4cnc5c(=O)[nH]c(N)nc54)[C@H](O)[C@@H]3O)[C@@H](O)[C@H]2O)c2nc(N)[nH]c(=O)c21", "note": "[m7GpppG]", "values": [{"measurement": "Kd", "value": "~0.2", "unit": "µM"}]}]}
